# scFv variants of Ab-14 (heavy chain) against a SARS-CoV-2 spike peptide

Binding partner: SARS-CoV-2 spike HR2 peptide, sequence PDVDLGDISGINAS.

Each scFv is VH, three GGGGS repeats, VL, as in the parent Ab-14, and differs from it in the CDRs of the heavy chain only.
VH: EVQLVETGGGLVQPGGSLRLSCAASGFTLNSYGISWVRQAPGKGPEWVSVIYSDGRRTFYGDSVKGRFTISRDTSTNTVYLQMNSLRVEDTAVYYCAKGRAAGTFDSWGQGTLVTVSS
VL: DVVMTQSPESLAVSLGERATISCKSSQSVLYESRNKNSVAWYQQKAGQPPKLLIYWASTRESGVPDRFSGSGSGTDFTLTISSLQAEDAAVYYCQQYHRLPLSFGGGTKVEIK

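The variants were designed computationally from a first round of random CDR variants and then made and measured. Their group label is 14H_En_Gibbs (En: ensemble of fine-tuned language models; Gibbs: Gibbs sampling). The assay is AlphaSeq: two haploid yeast populations carry antibody and antigen on their surface. Pairs that bind mate more often; barcode pairs of the diploids are counted by sequencing. Read counts were normalised to the haploid input and turned into Kd by a linear fit to BCL2-family pairs of known affinity, for each replicate. Each pool was mated in six replicate cultures.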

The parent's heavy chain CDRs are GFTLNSYGIS, VIYSDGRRTFYGDSVK, GRAAGTFDS; each variant's own CDRs replace them letter for letter. Numbers give log10(Kd / nM), so 0 is 1 nM and 3 is 1 µM. Smaller is tighter. A pair that was not seen in that replicate is written "n.d."; this usually means weak binding, but a binder can also be missed. The parent sequence was in this pool as ten entries: three were never detected, three once, and four in most replicates, with averages from 0.34 to 2.37.

| CDR-H1 | CDR-H2 | CDR-H3 | log10 Kd (nM) by replicate | control signals |
|---|---|---|---|---|
| GYSLDDYGIS | VIYADGKRKSYAEDVK | GNVGGSFMD | 3.60 n.d. n.d. n.d. n.d. n.d. | 2/18 (2.13) |
| GFDLDEYGIS | VIYADGTRKYYADNVK | GDYHYVVST | n.d. n.d. n.d. n.d. n.d. n.d. | 0/18 |
| GFSINEYGIS | VIYADGLRQFYTNAVK | GMAAVTFDQ | n.d. n.d. n.d. n.d. n.d. n.d. | 0/18 |
| GGDLNEYGIS | VIYADGVRKNYIDSVK | GQNGIVLNI | n.d. n.d. n.d. n.d. n.d. n.d. | 1/18 (1.12) |
| GFNLEEYGIS | VIYADGDRMSYDEAVK | GQISGVIDM | n.d. n.d. n.d. n.d. n.d. n.d. | 0/18 |
| GFNFNEYGIS | VIYADGKRTAYSESVK | GNSAGTMNH | n.d. n.d. n.d. n.d. n.d. n.d. | 0/18 |
| GFDLEEFGIS | VIYADGMRTYASDAVK | GTFSGLVSV | n.d. n.d. n.d. 1.20 n.d. n.d. | 1/18 (1.70) |
| GDSLEEYGIS | VIYADGKRTAYKNKFK | GQVAGYFDV | n.d. 3.67 n.d. n.d. n.d. n.d. | 0/18 |
| GESLEEYGIS | VIYADGIREQYVDDVK | GEQGGYFVT | n.d. n.d. n.d. n.d. n.d. n.d. | 0/18 |
| GFSIDEYGIS | VIYADGSRQVYQNKVK | GKGTGYFTT | n.d. n.d. n.d. n.d. n.d. n.d. | 0/18 |
| GFPLEEYGIS | VIYADGKRTFYTDAVK | GTWGVFGLG | n.d. n.d. n.d. n.d. n.d. n.d. | 0/18 |
| GDDLAEYGVS | VIYADGKRTKYSDHVK | GEVGGFFDA | n.d. n.d. n.d. n.d. n.d. n.d. | 0/18 |
| GFKLDEYGIS | VIYADGCRTAYVDSVK | GKTTFSKFV | n.d. n.d. n.d. n.d. n.d. n.d. | 1/18 (0.83) |
| GFNLDEYGIS | VIYADGHRMFVSNSVK | GENADALFV | n.d. n.d. n.d. n.d. n.d. n.d. | 0/18 |
| GFDLGEYGIS | VIYADGHRTAYSTSVK | GTIGGMFFN | n.d. n.d. n.d. n.d. n.d. n.d. | 0/18 |
| GFNLEEYGIS | VIYADGKRTQYSENVK | GHIGNVRTV | n.d. n.d. n.d. n.d. n.d. n.d. | 0/18 |
| GFSFDEYGIS | VIYADGKRSFYADTVK | GNKDMTFDI | n.d. n.d. n.d. n.d. n.d. n.d. | 0/18 |
| GFNLDEYGIS | VIYADGQRTAYAKHVK | GTGGMDRGV | n.d. n.d. n.d. n.d. n.d. n.d. | 0/18 |
| GFDLGEYGIS | VIYADGSRKAYATSFK | GGSGYFDGV | 2.93 n.d. n.d. n.d. n.d. 4.69 | 2/18 (2.42) |
| GFDLDEYGIS | VIYADGSRVAILESVK | GKIAGTLDQ | -0.38 -0.51 -0.08 -0.55 0.09 0.33 | 0/18 |
| GDGLEEYGIS | VIYADGMRESYVDDVK | GQKGGTFNL | 2.11 1.29 n.d. n.d. 1.56 2.21 | 0/18 |
| GFNLDEYGIS | VIYADGTRTSYQDRVK | GVKSGHDKV | 1.09 0.56 1.46 0.14 0.19 0.68 | 0/18 |
| GFDINEYGVS | VIYADGMRSYYAGKVK | GSNGALFEV | n.d. n.d. n.d. n.d. n.d. n.d. | 0/18 |
| GFDFQEYGIS | VIYADGLRTAYANSVK | GQSNALTTV | n.d. n.d. n.d. 2.17 n.d. n.d. | 1/18 (1.23) |
| GDGLSEYGIS | VIYADGFRTSYANDVK | GTAAGGFMV | n.d. n.d. n.d. n.d. n.d. n.d. | 1/18 (2.38) |
| GFEIQEYGIS | VIYADGRRTAYAENVK | GTMGGTLST | n.d. 2.80 2.28 1.35 1.49 1.83 | 0/18 |
| GENLEEYGIS | VIYADGMRTQYAEKVK | GRQGGFFIK | n.d. n.d. n.d. n.d. n.d. n.d. | 0/18 |
| GKSVDEYGIS | VIYADGMRAEYQQSVK | GHTGGIFFV | n.d. n.d. n.d. n.d. 3.38 n.d. | 0/18 |
| GFDLREYGIS | VIYADGRRVVYNDKVK | GELTGTFDQ | n.d. n.d. n.d. n.d. n.d. n.d. | 0/18 |
| GFDLQEYGIS | VIYADGKRTKVTDNVK | GTVTGTAFT | n.d. n.d. n.d. n.d. n.d. n.d. | 0/18 |
| GNTLNEYGIS | VIYADGIRTNYSDNVK | GMNGDTFTQ | n.d. n.d. n.d. n.d. n.d. n.d. | 0/18 |
| GDVLDEYGIS | VIYADGQRTFYVQDVK | GGKAGSFSV | n.d. n.d. n.d. n.d. n.d. n.d. | 0/18 |
| GFDINEYGIS | VIYADGFREAYAESVK | GLNQTGWTV | n.d. n.d. n.d. n.d. n.d. n.d. | 0/18 |
| GFNLEEYGIS | VIYADGSRSSYIEDVK | GGWNADFIV | n.d. n.d. n.d. n.d. 1.30 n.d. | 0/18 |
| GEVLDEYGIS | VIYADGQRVQYTDNVK | GLLTGAFDM | n.d. n.d. n.d. n.d. n.d. n.d. | 0/18 |
| GFDLNEYGVS | VIYADGSRSAYTSSVK | GVGNLDIMI | n.d. n.d. n.d. n.d. n.d. n.d. | 0/18 |
| GFDLLEYGIS | VIYADGMRVAYAKDVK | GMFGIFTVD | n.d. n.d. n.d. n.d. n.d. n.d. | 0/18 |
| GFSLEEYGIS | VIYADGMRTFYAEKVK | GNFDLQEGY | n.d. n.d. n.d. n.d. n.d. n.d. | 0/18 |
| GDSLNEYGIS | VIYADGSRSKYADAFK | GQVAGYFGV | n.d. n.d. n.d. n.d. n.d. n.d. | 1/18 (2.95) |
| GFSIDEYGIS | VIYADGTRTAVATSVK | GQLVAYFDK | n.d. n.d. n.d. n.d. n.d. n.d. | 0/18 |
| GFGLDEYGIS | VIYADGMRANYATSVK | GYQAGVISV | n.d. n.d. n.d. n.d. n.d. n.d. | 0/18 |
| GFVLQEYGIS | VIYADGMRTAYAEDFK | GVTGVNLHI | n.d. n.d. n.d. n.d. n.d. n.d. | 0/18 |
| GFNLEEYGIS | VIYADGVRSFYIEDVK | GQWNADFIV | n.d. n.d. n.d. n.d. n.d. n.d. | 0/18 |

The range of this assay differs from that of the first round, and the authors advise against merging the two. In the paper, a design with two or fewer of six values counts as a poor binder. Background: pairings of all heavy chain designs with three empty control strains gave a value in 1% of cases (median 2.08, 5th percentile 0.84). Values in that range, when seen in few replicates, are hard to tell from nonspecific mating. For each scFv, signals with the empty controls are counted beside the result, with their mean in brackets.

Data: MIT Lincoln Laboratory AlphaSeq set, Li et al. 2023, doi:10.1038/s41467-023-39022-2, as distributed in FLAb.